For one protein, kcat/Km results are on record in ChEMBL document CHEMBL1143427, “Interactions of ceftobiprole with beta-lactamases from molecular classes A to D” (Antimicrob Agents Chemother, 2007).

Substrate in the series: CC(C)(O/N=C(\C(=O)N[C@@H]1C(=O)N2C(C(=O)[O-])=C(C[n+]3ccccc3)CS[C@H]12)c1csc(N)n1)C(=O)O
The experiment in a line: Ratio of Kcat to Km of Pseudomonas aeruginosa 18SH AmpC assessed as drug hydrolysis by spectrophotometry.

B1: Beta-lactamase (Pseudomonas aeruginosa (strain ATCC 15692 / PAO1 / 1C / PRS 101 / LMG12228)), P24735 (protein)
chain: MRDTRFPCLCGIAASTLLFATTPAIAGEAPADRLKALVDAAVQPVMKANDIPGLAVAISLKGEPHYFSYGLASKEDGRRVTPETLFEIGSVSKTFTATLAGYALTQDKMRLDDRASQHWPALQGSRFDGISLLDLATYTAGGLPLQFPDSVQKDQAQIRDYYRQWQPTYAPGSQRLYSNPSIGLFGYLAARSLGQPFERLMEQQVFPALGLEQTHLDVPEAALAQYAQGYGKDDRPLRVGPGPLDAEGYGVKTSAADLLRFVDANLHPERLDRPWAQALDATHRGYYKVGDMTQGLGWEAYDWPISLKRLQAGNSTPMALQPHRIARLPAPQALEGQRLLNKTGSTNGFGAYVAFVPGRDLGLVILANRNYPNAERVKIAYAILSGLEQQGKVPLKR
A word on the kcat/Km: it is the second-order rate constant that governs catalysis at low substrate concentration. As to B1, the kcat/Km came out at 15000 M⁻¹ s⁻¹.
